# Data: patent US8269010B2, “3-amino-pyridine derivatives for the treatment of metabolic disorders” (Piramal Healthcare Limited, priority 2006, dated 2012)
# By UniProt entry, the sequences of proteins in these tests, tags left out.
# UniProt P37238, whole entry: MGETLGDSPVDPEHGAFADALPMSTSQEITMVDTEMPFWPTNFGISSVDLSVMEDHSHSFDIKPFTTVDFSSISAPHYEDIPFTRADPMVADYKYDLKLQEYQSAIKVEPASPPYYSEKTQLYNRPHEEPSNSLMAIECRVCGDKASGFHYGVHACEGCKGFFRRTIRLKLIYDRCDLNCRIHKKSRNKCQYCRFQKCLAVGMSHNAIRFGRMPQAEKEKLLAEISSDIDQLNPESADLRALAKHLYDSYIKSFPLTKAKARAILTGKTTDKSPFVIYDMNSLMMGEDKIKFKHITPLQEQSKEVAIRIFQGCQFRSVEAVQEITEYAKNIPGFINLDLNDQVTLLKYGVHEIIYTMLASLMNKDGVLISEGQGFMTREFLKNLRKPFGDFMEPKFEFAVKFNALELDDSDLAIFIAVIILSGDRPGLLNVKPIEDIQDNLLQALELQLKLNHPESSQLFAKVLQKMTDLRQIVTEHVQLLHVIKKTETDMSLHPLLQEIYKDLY
# Molecular target: T1, Mouse PPARγ (Mus musculus, UniProt P37238)
# T1 construct: endogenous in cells; host or cells: 3T3-L1 fibroblasts
# Assay: Mouse PPARγ assay (TransAM PPARγ ELISA, 3T3-L1 fibroblasts)
# Type: cell-based
# Details: Rosiglitazone 10 μM, 72 hrs
# Experimental: The assay was designed as in the reference, Blood, 104(5), 1361-8, 2004, the disclosure of which is incorporated by reference for the teaching of the assay.
# 3T3-L1 fibroblasts were seeded in 6-well plates at a density of 4×10^4 cells/well and cultured in DMEM containing 10% calf serum. After 4-5 days, when the cells become confluent, each of test compound was added (from a 20 mM stock in DMSO) to the final concentration of 50 μM in DMEM supplemented with 10% FCS. […] The plates were incubated for 72 hrs at 37° C. in a CO2 incubator with fresh medium containing test substances added after first 48 hrs. After 72 hrs, the medium was removed; the cell layer was washed and processed for the PPARγ assay as per the instruction of the manufacturer (Active Motif, North America, California, USA). PPARγ activation was determined using 96-well ELISA assay as per the instruction manual (TransAM PPARγ. Active Motif, Cat 0.40196). Assay Readout was absorbance output from spectrophotometer for the mouse PPARγ assay. Luminescence data output was recorded for the human PPARγ assay.
compound,measurement,value
"CN(CCOc1ccc(CC2SC(=O)NC2=O)cc1)c1ccccn1 (stereo not shown) [Rosiglitazone, reference compound]",PPARγ activity (% of rosiglitazone),100%
